# From article PMC9617852, “In vitro and in vivo assessment of the antioxidant potential of isoxazole derivatives” (Scientific Reports, 2022)
# Chains of the proteins cited; added tags and fusions are not shown. Residues count along the entry.
# UniProt P00591, whole entry: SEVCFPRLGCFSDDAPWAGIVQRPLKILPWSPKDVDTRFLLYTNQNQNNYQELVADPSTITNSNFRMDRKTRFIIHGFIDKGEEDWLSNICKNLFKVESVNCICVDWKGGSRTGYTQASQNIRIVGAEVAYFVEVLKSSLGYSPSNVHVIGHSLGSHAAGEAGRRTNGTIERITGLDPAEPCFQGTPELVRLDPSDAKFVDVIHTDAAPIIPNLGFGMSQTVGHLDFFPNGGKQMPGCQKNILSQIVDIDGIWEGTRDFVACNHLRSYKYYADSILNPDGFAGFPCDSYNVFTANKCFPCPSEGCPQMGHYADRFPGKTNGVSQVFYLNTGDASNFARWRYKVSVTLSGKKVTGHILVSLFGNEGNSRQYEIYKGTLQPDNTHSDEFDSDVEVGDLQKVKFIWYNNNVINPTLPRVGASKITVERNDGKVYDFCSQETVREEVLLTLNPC
# UniProt P00690, 16-511 limits assumed: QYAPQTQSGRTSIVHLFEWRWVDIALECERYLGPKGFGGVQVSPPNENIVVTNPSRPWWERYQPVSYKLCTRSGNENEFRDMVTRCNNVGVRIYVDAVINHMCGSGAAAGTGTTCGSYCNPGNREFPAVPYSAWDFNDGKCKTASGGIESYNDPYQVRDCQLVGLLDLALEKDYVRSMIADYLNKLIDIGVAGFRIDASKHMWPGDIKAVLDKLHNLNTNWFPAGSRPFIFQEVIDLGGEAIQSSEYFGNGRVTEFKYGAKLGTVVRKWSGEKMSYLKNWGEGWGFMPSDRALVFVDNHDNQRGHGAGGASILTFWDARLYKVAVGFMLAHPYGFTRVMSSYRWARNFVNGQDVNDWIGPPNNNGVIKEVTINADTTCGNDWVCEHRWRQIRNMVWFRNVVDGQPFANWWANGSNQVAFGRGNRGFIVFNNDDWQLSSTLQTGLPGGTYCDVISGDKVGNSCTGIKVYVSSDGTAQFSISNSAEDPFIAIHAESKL
# How the values were obtained:
# [1] = DPPH free radical scavenging assay (in vitro antioxidant activity); conditions: DPPH in methanol, 30 min in the dark at 25 °C, absorbance 517 nm
# [2] = target: porcine pancreatic lipase (Sus scrofa, UniProt P00591); test: Porcine pancreatic lipase inhibition assay; assay type: biochemical; conditions: substrate p-nitrophenyl butyrate, 37 °C, 410 nm; highest concentration 400 µg/ml
# [3] = target: porcine pancreatic α-amylase (Sus scrofa, UniProt P00690); test: α-Amylase inhibitory assay; assay type: biochemical; conditions: starch substrate, DNSA, 540 nm; highest concentration 500 µg/ml
# Hep3B [4] = conditions: Hep3B cancer cell line; cited from earlier work
# Hep3B [5] = conditions: cells shifted to apoptosis; cited from earlier work
# HepG2 = HepG2 cancer cell line; cited from earlier work
SMILES,IC50 DPPH [1],IC50 Lipase [2],IC50 α-Amylase [3],IC50 against Hep3B (Hep3B [4]),reduction of the necrosis rate of Hep3B (Hep3B [5]),IC50 against HepG2 (HepG2)
COc1ccc(NC(=O)c2c(-c3ccc(F)cc3)noc2C)cc1OC,5.11 ± 0.91 µg/mL,303.90 ± 2.2 µg/mL,> 500 µg/mL,7.66 µg/mL,,
COc1cc(NC(=O)c2c(-c3ccc(F)cc3)noc2C)c(OC)cc1Cl,43.85 ± 0.71 µg/mL,358.18 ± 1.32 µg/mL,> 500 µg/mL,8.54 µg/mL,4 folds,
Cc1onc(-c2ccc(F)cc2)c1C(=O)Nc1ccccc1,33.39 ± 0.57 µg/mL,> 400 µg/mL,> 500 µg/mL,5.76 µg/mL,4 folds,34.64 µg/mL
COc1cc(NC(=O)c2c(-c3ccc(F)cc3)noc2C)cc(OC)c1,0.47 ± 0.33 µg/mL,> 400 µg/mL,> 500 µg/mL,,,
